The experiment concerns the target EglN1 (Homo sapiens, UniProt Q9GZT9). In kind it is biochemical. Conditions: read-out: IC50, EglN1 inhibition; standard assay conditions, 10 μM 2-OG.

By UniProt entry, the sequences of proteins in these tests, tags left out. Where a name states a change or a piece, a line headed by the entry shows the natural chain unless it says otherwise.
UniProt Q9GZT9: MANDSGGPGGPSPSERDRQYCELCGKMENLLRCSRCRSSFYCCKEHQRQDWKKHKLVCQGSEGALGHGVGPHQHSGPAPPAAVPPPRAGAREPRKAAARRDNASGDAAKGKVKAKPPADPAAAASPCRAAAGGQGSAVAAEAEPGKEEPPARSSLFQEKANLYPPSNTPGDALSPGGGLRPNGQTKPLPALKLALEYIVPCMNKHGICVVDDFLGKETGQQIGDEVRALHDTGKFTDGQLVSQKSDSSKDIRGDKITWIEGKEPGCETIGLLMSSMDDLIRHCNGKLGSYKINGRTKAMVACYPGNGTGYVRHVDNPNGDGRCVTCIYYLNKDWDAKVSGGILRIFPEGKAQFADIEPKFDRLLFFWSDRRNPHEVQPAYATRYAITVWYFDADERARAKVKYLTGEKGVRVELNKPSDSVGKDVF

Structures are written as SMILES.

Results on 1 molecule are retold here after PMC3656605 (Nature, 2012).

A word on the IC50: it is the concentration that inhibits the measured activity by half.

On to `O=C(O)CC[C@@H](O)C(=O)O` [R-2HG, R-2-hydroxyglutarate], for which the concentration for half-maximal inhibition (IC50) is above 5 mM.
